Source: patent US20230263863A1, “COMPOSITIONS HAVING NEUROREGENERATIVE APPLICATIONS” (GRIFOLS WORLDWIDE OPERATIONS LIMITED, priority 2020, published 2023)

Tested on: SH-SY5Y cells
Experiment: Neurite outgrowth (Outgrowth Fold Change) in undifferentiated SH-SY5Y cells
Format: cell-based, human
Settings: all proteins 0.2 mg/mL
Experimental: Undifferentiated SH-SY5Y cells were seeded into 96 well clear bottom plates in media containing 0.1% FBS. A serum-free base media was utilized as recommended by the supplier for SH-SY5Y cells (Sigma, Cat #94030304-1VL). Twenty-four hours after seeding cells, a 3× stock solution of ApoTf, final concentrations indicated on the x-axis, in serum free base media was added to the cells. ApoTf was obtained and purified from pooled human plasma and dosed at a final concentration of 0.2 mg/mL. Cells were allowed to differentiate for 6 days. Neurite growth was assessed by imaging and image analysis. At the time of analysis, a 10× solution of Tubulin Tracker (Molecular Probes, T34075) and Hoechst 33342 (Molecular Probes #H3570) nuclear stain was prepared.
Briefly, Tubulin Tracker dissolved in DMSO was diluted 1:1 with Pluronic F-127 and further diluted into HBSS to generate a 10× solution. Hoechst 33342 was added to the HBSS-Tubulin Tracker solution at 10 μg/mL to generate a 10× nuclear stain. […]
After obtaining images, the MetaExpress Neurite Outgrowth analysis module (Molecular Devices) was used to identify cells, cell bodies, and quantify neurites. […] The Outgrowth Fold Change was determined by setting the untreated control cells to a value of 1 with all other treatments shown relative to untreated control.

Substance | neurogenesis / differentiation (neurite outgrowth) (FIG. 4) | neurogenesis / differentiation (neurite outgrowth) (FIG. 3B)
rHSA: low-affinity iron binding form of human serum albumin, from Albumedix [reference compound] | neither bovine serum albumin (BSA) nor a low-affinity iron binding form of human serum albumin affected neurogenesis | –
pdHSA: plasma-derived human serum albumin [reference compound] | – | did not affect neurogenesis
